Results reported in patent US7390890B2, “Inhibitors of nucleoside metabolism” (Albert Einstein College of Medicine of Yeshiva University, priority 1997, dated 2008).

The chains behind the UniProt entries cited, without tags or fusion partners.
UniProt P55859, whole entry: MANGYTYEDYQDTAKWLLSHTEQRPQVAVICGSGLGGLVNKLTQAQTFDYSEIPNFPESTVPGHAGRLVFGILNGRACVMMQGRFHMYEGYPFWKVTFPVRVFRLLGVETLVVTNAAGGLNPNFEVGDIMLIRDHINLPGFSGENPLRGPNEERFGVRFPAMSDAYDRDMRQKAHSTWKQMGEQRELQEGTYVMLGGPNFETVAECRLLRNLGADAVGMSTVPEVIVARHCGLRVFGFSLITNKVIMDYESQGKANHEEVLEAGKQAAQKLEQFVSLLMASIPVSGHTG
UniProt Q27546, whole entry: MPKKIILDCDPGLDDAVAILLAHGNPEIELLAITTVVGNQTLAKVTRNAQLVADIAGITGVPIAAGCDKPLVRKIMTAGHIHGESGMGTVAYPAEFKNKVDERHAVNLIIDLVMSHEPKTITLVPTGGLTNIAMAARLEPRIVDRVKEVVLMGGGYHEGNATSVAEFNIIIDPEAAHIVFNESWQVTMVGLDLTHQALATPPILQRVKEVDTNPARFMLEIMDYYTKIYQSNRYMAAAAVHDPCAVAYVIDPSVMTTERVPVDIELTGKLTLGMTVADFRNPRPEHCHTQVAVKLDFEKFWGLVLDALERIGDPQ

Tests used:
[1] = molecular target: calf spleen (bovine) purine nucleoside phosphorylase (Bos taurus, UniProt P55859); conditions: tested form: HCl
[2] = molecular target: nucleoside hydrolase from Crithidia fasciculata (Crithidia fasciculata, UniProt Q27546); assay: Protozoan nucleoside hydrolase inhibition, p-nitrophenyl riboside substrate; type: biochemical; conditions: read-out: Ki Values; nucleoside hydrolase C. fasciculata; Ia average of multiple determinations, Ib, Ic, Va single determination; tested form: HCl

Nc1nc2c(C3NC(CO)C(O)C3O)c[nH]c2c(=O)[nH]1 (centres unmarked)
Ki [1]: 0.03 nM
Ki [2]: 7 nM
